{"source": "paper PMC5049494", "about": "“Nitrotriazole-based acetamides and propanamides with broad spectrum antitrypanosomal activity” (European Journal of Medicinal Chemistry, 2016)", "type_in_all_cases": "cell-based", "key": {"[1]": {"system": "T. cruzi, strain Tulahuen C4 amastigotes", "assay": "In vitro activity against T. cruzi", "details": "IC50 in L6 cells/IC50 in T. cruzi"}, "[2]": {"system": "T.b. rhodesiense, strain STIB 900 trypomastigotes", "assay": "In vitro activity against T. b. rhodesiense", "experimental": "Compounds in Table 1 were screened for anti-parasitic activity against three trypanosomatids: T. cruzi, T. b. rhodesiense and Leishmania donovani and compared with previously made analogs shown in orange and designated with a. The concentration of compound that inhibits parasite growth by 50% (IC50) was calculated from dose response curves for each parasite (Table 1). In addition, compounds were tested for toxicity in L6 rat skeletal myoblasts, the host cells for T. cruzi amastigotes, in order to calculate a selectivity index for each parasite [SI = IC50L6/IC50parasite] (Table 1). The TDR (Special Programme for Research and Training in Tropical Diseases, World Health Organization) criteria were adopted to interpret antiparasitic activity and selectivity.\nIn vitro activity against T. cruzi, T. b. rhodesiense, L. donovani and cytotoxicity assessment using L6 cells (rat skeletal myoblasts) was determined using a 96-well plate format as previously described. Data were analyzed with the graphic program Softmax Pro (Molecular Devices, Sunnyvale, CA, USA), which calculated IC50 values by linear regression from the sigmoidal dose inhibition curves."}, "[3]": {"system": "L. donovani axenic, strain MHOM-ET-67/L82 amastigotes", "assay": "In vitro activity against L. donovani", "details": "IC50 in L6 cells/IC50 in L. donovani"}, "[4]": {"system": "bloodstream form T.b. brucei recombinant parasites expressing wild type (-tet) or elevated (+tet) levels of TbNTR", "details": "ratio of IC50 values -tet/+tet"}}, "data": [{"smiles": "O=C(CCn1cnc([N+](=O)[O-])n1)Nc1ccc(Oc2ccc(F)cc2)cc1", "note": "[Compound 7, N-(4-(4-fluorophenoxy)phenyl)-3-(3-nitro-1H-1,2,4-triazol-1-yl)propanamide]", "values": [{"measurement": "SI (T. c.)", "setting": "[1]", "result": 579}, {"measurement": "SI (T.b.r.)", "setting": "[2]; IC50 in L6 cells/IC50 in T.b. rhodesiense", "result": 140}, {"measurement": "fold more potent against T. b. rhodesiense than the corresponding acetamide", "setting": "[2]; propanamide vs acetamide analog", "result": 12, "unit": "fold"}, {"measurement": "SI (L.d.)", "setting": "[3]", "result": 20}]}, {"smiles": "O=C(CCn1cnc([N+](=O)[O-])n1)Nc1ccc(Oc2ccccc2)cc1", "note": "[Compound 8, 3-(3-Nitro-1H-1,2,4-triazol-1-yl)-N-(4-phenoxyphenyl)propanamide]", "values": [{"measurement": "Ratio –tet/+tet", "setting": "[4]", "result": 3.6}]}, {"smiles": "N#Cc1ccc(-c2ccc(NC(=O)CCn3cnc([N+](=O)[O-])n3)cc2)cc1", "note": "[Compound 9, N-(4′-cyano-[1,1′-biphenyl]-4-yl)-3-(3-nitro-1H-1,2,4-triazol-1-yl)propanamide]", "values": [{"measurement": "Ratio –tet/+tet", "setting": "[4]", "result": 4.7}]}]}
